We go through one substance from US8871751B2, “Compositions and methods relating to nuclear hormone and steroid hormone receptors including inhibitors of estrogen receptor alpha-mediated gene expression and inhibition of breast cancer” (The Board of Trustees of the University of Illinois, priority 2008, dated 2014).

By UniProt entry, the sequences of proteins in these tests, tags left out.
UniProt P03372, whole entry: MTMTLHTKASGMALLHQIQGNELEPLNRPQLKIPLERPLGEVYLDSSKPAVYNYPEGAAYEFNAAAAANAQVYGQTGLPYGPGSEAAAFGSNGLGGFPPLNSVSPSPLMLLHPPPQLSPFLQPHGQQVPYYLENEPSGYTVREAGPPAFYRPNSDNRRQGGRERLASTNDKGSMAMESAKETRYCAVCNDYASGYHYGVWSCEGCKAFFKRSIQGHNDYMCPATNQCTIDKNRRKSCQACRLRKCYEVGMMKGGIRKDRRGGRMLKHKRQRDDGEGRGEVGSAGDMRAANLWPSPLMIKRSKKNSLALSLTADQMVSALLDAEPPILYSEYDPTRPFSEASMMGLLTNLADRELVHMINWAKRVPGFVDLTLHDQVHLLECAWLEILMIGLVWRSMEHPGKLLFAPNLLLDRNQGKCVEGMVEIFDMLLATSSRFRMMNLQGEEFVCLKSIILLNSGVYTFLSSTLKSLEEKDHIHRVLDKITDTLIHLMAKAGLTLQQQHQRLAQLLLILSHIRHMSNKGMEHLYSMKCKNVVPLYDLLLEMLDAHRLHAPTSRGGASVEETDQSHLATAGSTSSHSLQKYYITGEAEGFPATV

The target in this test is ERα (Homo sapiens, UniProt P03372). Put plainly: (ERE)3-luciferase reporter gene assay in T47D-KBluc cells. Also noted: Using a stably transfected breast cancer cell line that expresses endogenous ERα; endogenous in cells; host or cells: T47D-KBluc. Format: cell-based. The conditions noted are these: 100 fold molar excess, 20 pM E2, 24 h. Here is the method:
The T47D-KBluc cells stably express an (ERE)3-luciferase reporter gene (38). […] Four days before E2 induction, the cells were switched to the above medium, with 10% 2× charcoal-dextran-treated calf serum instead of FBS. 200,000 cells/well were transferred to each well of a 24-well plate. After 24 h the indicated concentrations of the test compounds were added in DMSO and E2 was added to 20 pM. After 24 h cells were washed once in PBS, and 150 μl 1× Passive Lysis Buffer (Promega, Madison Wis.) was used to lyse the cells. Luciferase activity was determined using firefly luciferase reagents from Promega (Madison, Wis.).
Reporter Gene Assays. […] AR was assayed in stably transfected HeLa cells and GR was assayed in stably transfected T47D cells maintained as described above. Four days before each experiment the cells were switched to medium containing CD-treated serum as described above. The HeLaAR cells were plated at 100,000 cells/well and the T47D/A1-2 and T47D-KBluc cells were plated at 200,000 cells/well in 1 ml of their respective media in 24-well plates. After 24 hours the indicated concentrations of E2, dihydrotestosterone (DHT) or dexamethasone (Dex) and DMSO vehicle, with or without TPSF, were added to each well. […] Luciferase activity was determined using BrightGlo firefly luciferase reagent from Promega (Madison, Wis.).
(In general: Reporter assays use an easily measured gene product as a stand-in for the process of interest.)

As to “Fulvestrant [ICI 182,780/Faslodex/Fulvestrant, reference compound]”, the “effect on E2 activation of the (ERE)3-luciferase reporter gene” value was “blocked activation”.
